Here are results for 1 molecule from US20240173419A1, “CDK2 DEGRADERS AND USES THEREOF” (Kymera Therapeutics, Inc., priority 2022, published 2024).

The target in the assay is CDK2 (Homo sapiens, UniProt P24941). Kind of assay: CDK2 degradation in MKN1 cells (AlphaLISA). As to the method: Degradation of CDK2 in MKN1 cells was measured using AlphaLISA technology (PerkinElmer ALSU-TCDK2-A10K). MKN1 cells were maintained in RPMI1640 medium containing 10% FBS+1× penn/strep. Cells were seeded in 96-well plates (Corning 3599) at a density of 2e4 cells per well in 80 μL of fresh complete growth medium. Cells were incubated overnight at 37° C., 5% CO2. Compounds were then added to the cell assay plates with a final top concentration of 10 μM in a 1:5 dilution series with a total of 11 doses (0.001 nM-10 μM). The final volume per well was 160 μL and the final DMSO concentration was 0.1%. Additionally, wells containing no cells and only complete growth medium were also maintained on the cell assay plates (‘no cell’ wells) and processed along with experimental wells. After 14 hour-incubation at 37° C., 5% CO2, the medium was removed and the cells were washed once with 100 μL of 1×PBS. Following removal of PBS, 40 μL of 1× Lysis Buffer containing 1× protease and phosphatase inhibitors (Roche 4693116001; Roche 4906837001) were added to each well. […] Under subdued light, the plates were analyzed on an EnVision Microplate Reader (PerkinElmer Model 2009-0030). […] The data were analyzed using Xlfit (v5.3. 1.3) and the dose-dependent CDK2 degradation data were fit using a four-parameter logistic model to calculate DC50.
On the technique in general: In Alpha technology, singlet oxygen from a donor bead excites a nearby acceptor bead.

As usually defined, the DC50 is the concentration giving 50% degradation. For `Cc1cc(S(=O)(=O)NC2CC(CN3CCN(c4ccc(C5CCC(=O)NC5=O)c(Cl)c4)CC3)C2)ccc1Nc1ncc(C(F)(F)F)c(N2CCCC(C)(O)C2)n1` (single isomer, unassigned), the “CDK2 degradation 14 h: Average Dmax %” value (14 h incubation) is “A (A (>75% o))”. Also, the DC50 (read-out: CDK2 degradation 14 h: Mean external-Abs DC50, 14 h incubation) was under 100 nM.
